The numbers were not newly measured in patent US20230321114A1, “METHODS OF TREATING AGE-RELATED COGNITIVE DECLINE” (Woolsey Pharmaceuticals, Inc., priority 2020, published 2023), which cites them from elsewhere.

Protein sequences, listed by entry. Tags and fused reporters are not part of them.
UniProt Q15746, whole entry: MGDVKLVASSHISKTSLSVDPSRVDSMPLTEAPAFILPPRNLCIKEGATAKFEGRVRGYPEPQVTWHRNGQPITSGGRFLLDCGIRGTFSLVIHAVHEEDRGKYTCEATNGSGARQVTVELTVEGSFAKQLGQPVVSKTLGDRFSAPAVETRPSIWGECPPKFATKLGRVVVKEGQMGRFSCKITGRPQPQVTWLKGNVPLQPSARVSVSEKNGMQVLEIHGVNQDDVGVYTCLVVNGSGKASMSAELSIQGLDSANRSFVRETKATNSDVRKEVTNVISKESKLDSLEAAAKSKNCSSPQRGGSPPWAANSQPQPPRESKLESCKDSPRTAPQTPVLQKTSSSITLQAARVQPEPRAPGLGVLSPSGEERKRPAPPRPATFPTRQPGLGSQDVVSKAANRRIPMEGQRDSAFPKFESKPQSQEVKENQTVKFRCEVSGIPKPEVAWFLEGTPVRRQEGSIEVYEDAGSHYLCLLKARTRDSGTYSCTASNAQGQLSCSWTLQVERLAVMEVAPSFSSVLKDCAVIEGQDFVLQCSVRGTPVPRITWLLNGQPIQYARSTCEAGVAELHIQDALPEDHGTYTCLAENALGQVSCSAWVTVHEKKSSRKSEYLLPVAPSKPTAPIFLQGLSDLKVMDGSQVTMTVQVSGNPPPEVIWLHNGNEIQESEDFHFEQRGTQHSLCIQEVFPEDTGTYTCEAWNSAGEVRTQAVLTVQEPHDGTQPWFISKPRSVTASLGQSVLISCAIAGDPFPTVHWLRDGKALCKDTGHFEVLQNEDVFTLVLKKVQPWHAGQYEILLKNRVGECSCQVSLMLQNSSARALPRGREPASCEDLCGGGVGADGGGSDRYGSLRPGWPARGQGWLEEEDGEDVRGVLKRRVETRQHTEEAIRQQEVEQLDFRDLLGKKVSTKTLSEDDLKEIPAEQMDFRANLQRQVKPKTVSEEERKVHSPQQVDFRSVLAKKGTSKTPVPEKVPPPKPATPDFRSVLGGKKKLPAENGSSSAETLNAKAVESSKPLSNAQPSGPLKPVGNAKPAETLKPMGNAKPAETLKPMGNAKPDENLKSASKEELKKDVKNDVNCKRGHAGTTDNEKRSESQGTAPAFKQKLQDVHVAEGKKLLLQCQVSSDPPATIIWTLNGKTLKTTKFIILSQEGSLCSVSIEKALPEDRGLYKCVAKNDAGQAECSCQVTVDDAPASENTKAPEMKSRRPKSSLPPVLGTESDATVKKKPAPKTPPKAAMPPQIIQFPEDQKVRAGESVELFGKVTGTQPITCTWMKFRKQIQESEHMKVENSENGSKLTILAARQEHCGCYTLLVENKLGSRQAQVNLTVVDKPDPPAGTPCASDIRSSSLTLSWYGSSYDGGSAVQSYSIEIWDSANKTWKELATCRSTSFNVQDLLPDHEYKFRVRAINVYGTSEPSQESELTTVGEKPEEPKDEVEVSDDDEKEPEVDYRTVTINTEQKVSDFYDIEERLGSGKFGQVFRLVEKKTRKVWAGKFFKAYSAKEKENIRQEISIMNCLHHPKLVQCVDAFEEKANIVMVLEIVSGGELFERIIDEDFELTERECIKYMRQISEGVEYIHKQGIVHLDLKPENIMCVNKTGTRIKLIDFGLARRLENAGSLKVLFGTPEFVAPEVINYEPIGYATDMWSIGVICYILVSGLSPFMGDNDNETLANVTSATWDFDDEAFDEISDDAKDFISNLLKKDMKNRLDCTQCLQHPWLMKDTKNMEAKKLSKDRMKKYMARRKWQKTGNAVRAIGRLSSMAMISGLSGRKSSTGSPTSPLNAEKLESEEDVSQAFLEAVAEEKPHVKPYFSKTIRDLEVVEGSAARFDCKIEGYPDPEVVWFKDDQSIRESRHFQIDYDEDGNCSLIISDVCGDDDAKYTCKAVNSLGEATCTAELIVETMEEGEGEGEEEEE

The target of the series is MLCK (Homo sapiens, UniProt Q15746). The note with it: compared with fasudil.

As for `O=S(=O)(c1cccc2c(O)nccc12)N1CCCNCC1` [hydroxyfasudil], the “activity in vasodilation relative to fasudil parent molecule” value is reported as “slightly enhanced activity”.
